Screening results as filed in PubChem.
A selection: hits, their analogues and other compounds. The true share with any hit is near 0.73%.
E-selectin induc: E-selectin induction in HUVECs, primary screen, imaging, HUVEC, immunofluorescence imaging, single point. normalized: neutral wells 0, TNF-alpha wells 100. actives 0.37% (n = 260,000). AID 686992, 2013. activation, % at 7.58 µM;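 active means mean E-selectin-positive cell signal at least 10% of the positive control, reached in at least 60% of replicates, without over 20% cell loss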
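System: HUVEC / Compound: single concentration / Signal: immunofluorescence imaging / Read-out: percent E-selectin-positive cells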
RAD54 inh: inhibitors of human RAD54 branch migration, primary screen, biochemical, fluorescence, single point | DNA repair and recombination protein RAD54-like (Homo sapiens), Q92698 | RAD54 Holliday junction branch migration, FAM/BHQ fluorescence | inhibition, % at 10.4 µM | actives 0.14% (n = 360,000) | AID 602329, 2012;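 active means mean normalized replicate activity at least 40 and at least half of replicates scoring 40 or more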;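 further: 0% = median of neutral control wells and 100% = median of positive control wells; inhibitors cause a drop in the FAM fluorescence signal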
RAD52 inh: RAD52 DNA annealing inhibitors, primary screen, biochemical, FRET, single point, set 2; recombinant RAD52 DNA annealing, FRET fluorescence; inhibition, % at 18.7 µM; actives 0.46% (n = 360,000); AID 651710, 2012;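 active means every replicate showing at least 50% inhibition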
Xi reactivation: activators of inactive X chromosome reactivation, primary screen, imaging, XiGFP fibroblasts, GFP high-content imaging, set 2 | XiGFP mouse fibroblasts, % GFP-positive cells imaging, 3 d; cells co-treated with 5-aza-dC sensitizer; scaled so ellipticine positive control = 100% | activation, % at 7.58 µM | actives 0.055% (n = 360,000) | AID 743238, 2013;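 active means mean normalized replicate activation at least 10% and every replicate at or above 10%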;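 further: 0% = median of on-plate neutral control wells and 100% = ellipticine 6 µM median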
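Material: XiGFP fibroblasts, SV40-immortalized. Buffer or medium: DMEM plus 5-aza-dC sensitizer. Compound: single concentration per compound, delivered by pin transfer. Times: 3 days compound exposure. Controls: ellipticine 6 µM.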
Yeast UUG start: alters start codon recognition fidelity in yeast; S. cerevisiae UUG-firefly luciferase reporter, luminescence/redox ratio; activity score, % at 18.7 µM; actives 0.13% (n = 350,000); AID 602363;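 active = replicate mean at a twofold rise or more, about +100% in these data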;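 also: firefly luciferase made from a UUG start codon reports start codon fidelity; reporter light over untreated wells divided by growth signal over untreated wells; some hits fall short of that in this replicate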
RAD52 DNA ctr: DNA-binding compounds via dye displacement, dose response, artefact control for RAD52 inhibitor project, biochemical, fluorescence polarization, cherry-pick. AC50, µM. shares compounds with RAD52 inh. actives 8% (n = 1,000). Salmon sperm DNA/acridine orange FP displacement;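 active means fitted half-maximal concentration for signal loss at or below twice the highest dose tested, in every separate run, actives reach about 64 µM in these data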
* hit, by the source's call; ! = not confirmed by another sample.

The chains behind the UniProt entries cited, without tags or fusion partners.
DNA repair and recombination protein RAD54-like (Homo sapiens), Q92698, UniProt Q92698, whole entry, looked up: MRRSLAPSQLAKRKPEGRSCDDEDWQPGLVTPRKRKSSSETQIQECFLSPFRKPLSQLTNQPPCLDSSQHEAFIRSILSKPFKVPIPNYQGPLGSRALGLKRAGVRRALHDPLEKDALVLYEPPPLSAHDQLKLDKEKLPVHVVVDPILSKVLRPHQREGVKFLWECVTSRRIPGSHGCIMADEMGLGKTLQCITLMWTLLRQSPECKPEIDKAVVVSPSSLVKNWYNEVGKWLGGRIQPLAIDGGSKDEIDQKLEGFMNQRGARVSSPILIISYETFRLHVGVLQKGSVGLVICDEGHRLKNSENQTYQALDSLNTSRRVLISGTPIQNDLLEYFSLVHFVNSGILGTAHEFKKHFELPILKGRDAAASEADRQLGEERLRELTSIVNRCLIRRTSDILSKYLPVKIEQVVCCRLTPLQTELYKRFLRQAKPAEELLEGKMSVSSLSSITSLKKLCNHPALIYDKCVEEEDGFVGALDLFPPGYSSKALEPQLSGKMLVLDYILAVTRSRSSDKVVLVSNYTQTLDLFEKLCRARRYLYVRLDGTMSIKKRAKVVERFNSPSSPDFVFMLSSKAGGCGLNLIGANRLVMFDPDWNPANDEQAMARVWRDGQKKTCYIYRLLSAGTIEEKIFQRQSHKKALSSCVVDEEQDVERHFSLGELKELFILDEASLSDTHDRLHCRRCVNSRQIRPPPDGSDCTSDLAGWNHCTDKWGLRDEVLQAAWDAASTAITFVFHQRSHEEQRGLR

For CN(C)CCCn1c(SCC(=O)N2c3ccccc3Sc3ccccc32)nc2ccccc2c1=O the results were E-selectin induc 2, RAD54 inh 6, RAD52 inh 69*, Xi reactivation 1, Yeast UUG start -8 and RAD52 DNA ctr inactive.
Screening Cn1c(SCC(=O)N2c3ccccc3Sc3ccccc32)nc2ccccc21 returned E-selectin induc -3, RAD52 inh -1 and Xi reactivation 1.
For C[C@@H]1CN([C@H](C)CO)C(=O)c2cc(N(C)C)ccc2O[C@@H](C)CCCCO[C@H]1CN(C)C(=O)Nc1ccc(F)cc1 the results were E-selectin induc 0 and Xi reactivation -1.
c1cncc(-c2nc(NCCCN3CCOCC3)c3c4c(sc3n2)CCC4)c1 was read as E-selectin induc 8, RAD52 inh 62*, Xi reactivation 0 and RAD52 DNA ctr inactive.
`c1cncc(-c2nc(N3CCOCC3)c3c4c(sc3n2)CCC4)c1` gave E-selectin induc 5, RAD54 inh 2, RAD52 inh -1, Xi reactivation 0 and Yeast UUG start -19.
CCCNC(=O)[C@H]1[C@H](CO)[C@H]2Cn3c(ccc(-c4ccccc4F)c3=O)[C@H]2N1C(=O)C1CCC1 was read as E-selectin induc 0, RAD52 inh -12 and Xi reactivation 0.
O=[N+]([O-])c1ccc2c(c1)c1ccccc1n2CCO was read as E-selectin induc 0, RAD54 inh 6, RAD52 inh -17, Xi reactivation 0 and Yeast UUG start 4.
For CCN(CC)CC(O)Cn1c(C)c(-c2ccccc2)c2cc([N+](=O)[O-])ccc21 (stereo unspecified) the results were RAD54 inh 24, RAD52 inh 64*, Xi reactivation 0, Yeast UUG start -11 and RAD52 DNA ctr inactive.
Screening Nc1nc(N)c2cc(Sc3ccc4ccccc4c3)ccc2n1 returned E-selectin induc -1, RAD54 inh 9, RAD52 inh -3, Xi reactivation 0 and Yeast UUG start -18.
`Nc1nc(N)c2cc(Sc3ccc(Cl)cc3)ccc2n1` gave E-selectin induc 0, RAD54 inh 14, RAD52 inh 85*, Xi reactivation 0, Yeast UUG start -22 and RAD52 DNA ctr inactive.
COc1ccccc1-c1ccc2c(c1)[C@@H]1[C@@H](CCN1C(=O)c1ccncc1)[C@@H](CO)N2 was read as E-selectin induc -1, RAD52 inh -14 and Xi reactivation 0.
Screening COc1cc2c(cc1OC)CN1CCc3cc(OC)c(OC)cc3C1C2 (stereo unspecified) returned RAD54 inh 84*, RAD52 inh 74*, Yeast UUG start -6 and RAD52 DNA ctr inactive.
COc1cc2c(cc1OC)C1Cc3ccc(OC)c(OC)c3CN1CC2 (stereo unspecified) was read as RAD54 inh 6 and Yeast UUG start -5.
For CCCCOc1cc(C(=O)OCCN(CC)CC)ccc1N the results were E-selectin induc 0, RAD54 inh 9, RAD52 inh 85*!, Xi reactivation 0, Yeast UUG start -8 and RAD52 DNA ctr inactive.
CCC(C)(C)c1ccc(OCCCC[n+]2cccc(C)c2C)c(C(C)(C)CC)c1 was read as RAD54 inh 36, RAD52 inh 66*, Xi reactivation 0, Yeast UUG start -1 and RAD52 DNA ctr inactive.

Three structures out of the list, ordered by length of the SMILES, smallest number first:
`c1cncc(-c2nc(N3CCOCC3)c3c4c(sc3n2)CCC4)c1` gave E-selectin induc 5, RAD54 inh 2, RAD52 inh -1, Xi reactivation 0 and Yeast UUG start -19.
For CCN(CC)CC(O)Cn1c(C)c(-c2ccccc2)c2cc([N+](=O)[O-])ccc21 (stereo unspecified) the results were RAD54 inh 24, RAD52 inh 64*, Xi reactivation 0, Yeast UUG start -11 and RAD52 DNA ctr inactive.
CCCNC(=O)[C@H]1[C@H](CO)[C@H]2Cn3c(ccc(-c4ccccc4F)c3=O)[C@H]2N1C(=O)C1CCC1 was read as E-selectin induc 0, RAD52 inh -12 and Xi reactivation 0.

Going on with the list.
`O=C(NCC(F)(F)F)[C@H]1[C@H](CO)[C@H]2Cn3c(cccc3=O)[C@H]2N1C(=O)C1CC1` gave E-selectin induc 0, RAD54 inh 8, RAD52 inh 2 and Xi reactivation 0.
Screening CN1CCN(C2CCN(Cc3ccc(O)c4ncccc34)CC2)CC1 returned E-selectin induc 0, RAD54 inh 16, RAD52 inh 92*, Xi reactivation 0, Yeast UUG start -36 and RAD52 DNA ctr inactive.
For Oc1ccc(CN2CCN(Cc3ccccc3)CC2)c2cccnc12 the results were RAD54 inh -9 and Yeast UUG start -27.
Screening COc1ccc(NC(=O)Nc2ccc3c(c2)C(=O)N([C@H](C)CO)C[C@@H](C)[C@@H](CN(C)Cc2ccc4c(c2)OCO4)OCCCC[C@H](C)O3)cc1 returned E-selectin induc 0, RAD54 inh -4, RAD52 inh 59*!, Xi reactivation -1, Yeast UUG start 27 and RAD52 DNA ctr inactive.
Screening COc1ccccc1-c1ccc2c(c1)O[C@H](CN(C)S(=O)(=O)c1ccccc1)[C@H](C)CN([C@@H](C)CO)S2(=O)=O returned E-selectin induc 0, RAD54 inh -2, RAD52 inh 1, Xi reactivation 0 and Yeast UUG start -4.
OC(c1ccccc1)(c1ccccc1)C1CCN(CCCOc2ccc3c(c2)CCCC3)CC1 was read as E-selectin induc 0, RAD52 inh 51*, Xi reactivation 0 and RAD52 DNA ctr inactive.
Screening OC(c1ccccc1)(c1ccccc1)C1CCN(CCCOc2cc(F)cc(F)c2)CC1 returned E-selectin induc 0, RAD52 inh -2 and Xi reactivation 0.
For CC1(C)CC(Nc2ccc(Nc3ccccc3)cc2)CC(C)(C)N1 the results were E-selectin induc 0, RAD52 inh 100*, Xi reactivation 0 and RAD52 DNA ctr inactive.
Screening CCOC(=O)c1c(C)n(-c2ccc(C)cc2)c2ccc(OCC(O)CNCCCO)cc12 (stereo unspecified) returned RAD52 inh 83*, Xi reactivation 0 and RAD52 DNA ctr inactive.
CCOC(=O)c1c(C)n(-c2ccccc2)c2ccc(OCCN(C)C)cc12 was read as RAD54 inh 15, RAD52 inh 44, Xi reactivation 0 and Yeast UUG start -2.
For Cc1noc(C)c1NC(=O)Nc1ccc2c(c1)CC(=O)N([C@H](C)CO)C[C@@H](C)[C@H](CN(C)Cc1ccc(-c3ccccc3)cc1)O2 the results were E-selectin induc 0, RAD52 inh -3 and Xi reactivation 0.
For CC1(C)Nc2cccc3cccc(c23)N1 the results were E-selectin induc 0, RAD54 inh 9, RAD52 inh 65*, Xi reactivation 0, Yeast UUG start -11 and RAD52 DNA ctr inactive.
CC[n+]1c(C)cc2c(sc3ccccc32)c1C was read as RAD52 inh 57*, Xi reactivation 0 and RAD52 DNA ctr inactive.
Screening CCc1nc(C)cc2c1sc1ccccc12 returned RAD54 inh -8, RAD52 inh -11, Xi reactivation 1 and Yeast UUG start -49.
